{"sequences": {"note": "Sequences of proteins named here, by UniProt entry; tags and fusion partners are left off. A change or cut given only in a name is not applied to a line headed by its entry.", "UniProt P31423": "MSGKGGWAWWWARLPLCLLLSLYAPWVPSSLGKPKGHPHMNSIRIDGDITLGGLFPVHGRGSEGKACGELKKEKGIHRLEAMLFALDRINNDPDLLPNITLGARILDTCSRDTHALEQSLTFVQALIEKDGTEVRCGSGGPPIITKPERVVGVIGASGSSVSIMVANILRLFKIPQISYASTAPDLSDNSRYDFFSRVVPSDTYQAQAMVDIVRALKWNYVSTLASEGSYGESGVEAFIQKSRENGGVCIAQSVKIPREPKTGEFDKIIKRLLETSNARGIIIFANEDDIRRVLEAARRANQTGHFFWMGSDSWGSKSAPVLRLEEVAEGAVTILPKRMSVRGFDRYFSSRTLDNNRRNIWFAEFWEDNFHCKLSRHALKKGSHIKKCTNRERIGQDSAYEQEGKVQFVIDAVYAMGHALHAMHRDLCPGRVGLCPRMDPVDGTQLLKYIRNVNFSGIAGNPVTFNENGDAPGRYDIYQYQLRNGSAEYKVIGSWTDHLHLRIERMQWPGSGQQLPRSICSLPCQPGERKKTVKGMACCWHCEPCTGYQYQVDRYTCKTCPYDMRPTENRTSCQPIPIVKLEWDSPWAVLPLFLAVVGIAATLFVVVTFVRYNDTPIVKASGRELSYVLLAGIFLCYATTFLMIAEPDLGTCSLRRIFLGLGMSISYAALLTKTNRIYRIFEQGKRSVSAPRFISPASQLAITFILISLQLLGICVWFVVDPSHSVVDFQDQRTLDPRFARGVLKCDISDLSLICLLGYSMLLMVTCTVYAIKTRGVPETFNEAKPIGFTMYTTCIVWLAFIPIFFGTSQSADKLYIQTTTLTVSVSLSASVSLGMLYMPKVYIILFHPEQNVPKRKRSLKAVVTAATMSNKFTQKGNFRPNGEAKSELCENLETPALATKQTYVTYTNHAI"}, "source": "ChEMBL document CHEMBL3351329", "about": "“Radiosynthesis and evaluation of an 18F-labeled positron emission tomography (PET) radioligand for metabotropic glutamate receptor subtype 4 (mGlu4)” (J Med Chem, 2014)", "target": "Metabotropic glutamate receptor 4 (Rattus norvegicus, UniProt P31423)", "assay": "Displacement of [3H]ML128 from rat mGlu4 receptor expressed in CHO cells after 30 mins by liquid scintillation counting analysis", "assay_type": "cell-based", "procedure,_shortened": "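Whole freshly harvested CHO cells stably expressing rat mGlu4 (G418-selected), 50 000 per tube, incubated with 10 nM [3H]1 plus competitor (0.01 nM–10 μM) 30 min at room temperature. Cells pelleted at 4 °C, washed three times with cold medium, lysed in 0.5% NaOH at 56 °C, then counted by liquid scintillation. Nonspecific binding defined with 10 μM unlabeled 1. Triplicates.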", "data": [{"smiles": "COc1cc(NC(=O)c2ccccn2)ccc1Cl", "values": [{"measurement": "IC50", "result": 12.8, "unit": "nM"}]}]}
